Laboratory results: patent publication US10508088B2, “Methods using HDAC11 inhibitors” (FORMA Therapeutics, Inc., priority 2016, dated 2019)

By UniProt entry, the sequences of proteins in these tests, tags left out.
UniProt Q96DB2, whole entry: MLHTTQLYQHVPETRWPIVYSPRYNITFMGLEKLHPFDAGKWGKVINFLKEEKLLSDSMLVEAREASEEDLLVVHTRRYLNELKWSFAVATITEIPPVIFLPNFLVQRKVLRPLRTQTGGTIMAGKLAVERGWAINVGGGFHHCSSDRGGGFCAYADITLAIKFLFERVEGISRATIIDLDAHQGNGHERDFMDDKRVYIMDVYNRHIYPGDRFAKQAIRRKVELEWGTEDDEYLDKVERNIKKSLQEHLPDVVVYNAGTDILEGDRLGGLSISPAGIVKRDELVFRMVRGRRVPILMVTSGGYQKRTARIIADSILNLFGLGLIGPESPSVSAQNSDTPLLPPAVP
UniProt Q13547, whole entry: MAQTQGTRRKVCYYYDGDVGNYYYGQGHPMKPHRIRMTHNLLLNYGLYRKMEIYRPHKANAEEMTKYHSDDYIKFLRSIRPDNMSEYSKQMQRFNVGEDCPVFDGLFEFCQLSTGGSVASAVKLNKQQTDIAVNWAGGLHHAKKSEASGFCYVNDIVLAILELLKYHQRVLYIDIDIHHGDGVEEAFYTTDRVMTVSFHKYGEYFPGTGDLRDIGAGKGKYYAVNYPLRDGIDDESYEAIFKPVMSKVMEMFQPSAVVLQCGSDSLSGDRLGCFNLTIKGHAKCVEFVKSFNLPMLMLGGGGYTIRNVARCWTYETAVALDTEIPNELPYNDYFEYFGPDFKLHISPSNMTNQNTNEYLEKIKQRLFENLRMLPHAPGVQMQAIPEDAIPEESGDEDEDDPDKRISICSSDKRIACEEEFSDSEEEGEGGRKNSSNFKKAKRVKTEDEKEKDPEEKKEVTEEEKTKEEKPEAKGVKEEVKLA
UniProt P56524, whole entry: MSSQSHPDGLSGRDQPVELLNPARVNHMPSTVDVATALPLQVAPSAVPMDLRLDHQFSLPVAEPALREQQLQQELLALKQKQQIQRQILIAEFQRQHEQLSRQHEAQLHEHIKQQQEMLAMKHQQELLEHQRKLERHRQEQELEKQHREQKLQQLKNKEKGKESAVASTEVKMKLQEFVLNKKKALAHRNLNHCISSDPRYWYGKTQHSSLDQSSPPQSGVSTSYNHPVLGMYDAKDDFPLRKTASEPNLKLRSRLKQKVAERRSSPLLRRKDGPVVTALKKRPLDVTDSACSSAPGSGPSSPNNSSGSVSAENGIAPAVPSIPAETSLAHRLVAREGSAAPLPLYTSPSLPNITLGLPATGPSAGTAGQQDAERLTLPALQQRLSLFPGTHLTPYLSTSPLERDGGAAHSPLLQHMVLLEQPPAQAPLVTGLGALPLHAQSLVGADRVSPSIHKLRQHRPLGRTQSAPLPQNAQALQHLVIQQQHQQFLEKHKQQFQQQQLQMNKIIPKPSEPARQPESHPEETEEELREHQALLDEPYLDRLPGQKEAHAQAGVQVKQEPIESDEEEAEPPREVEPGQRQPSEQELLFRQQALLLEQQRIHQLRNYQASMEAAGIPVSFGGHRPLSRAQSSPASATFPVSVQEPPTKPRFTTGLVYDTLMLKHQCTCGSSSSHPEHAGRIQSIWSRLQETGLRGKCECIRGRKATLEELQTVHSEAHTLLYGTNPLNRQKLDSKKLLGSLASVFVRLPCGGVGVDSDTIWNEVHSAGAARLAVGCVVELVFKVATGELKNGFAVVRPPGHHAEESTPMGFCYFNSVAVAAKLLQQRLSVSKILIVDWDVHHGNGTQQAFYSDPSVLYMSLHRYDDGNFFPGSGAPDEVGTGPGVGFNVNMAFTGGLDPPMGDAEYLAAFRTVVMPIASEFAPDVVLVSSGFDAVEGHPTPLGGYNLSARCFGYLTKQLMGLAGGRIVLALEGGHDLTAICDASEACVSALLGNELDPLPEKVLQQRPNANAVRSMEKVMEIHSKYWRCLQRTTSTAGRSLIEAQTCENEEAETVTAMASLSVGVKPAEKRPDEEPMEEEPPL
UniProt Q9UQL6, whole entry: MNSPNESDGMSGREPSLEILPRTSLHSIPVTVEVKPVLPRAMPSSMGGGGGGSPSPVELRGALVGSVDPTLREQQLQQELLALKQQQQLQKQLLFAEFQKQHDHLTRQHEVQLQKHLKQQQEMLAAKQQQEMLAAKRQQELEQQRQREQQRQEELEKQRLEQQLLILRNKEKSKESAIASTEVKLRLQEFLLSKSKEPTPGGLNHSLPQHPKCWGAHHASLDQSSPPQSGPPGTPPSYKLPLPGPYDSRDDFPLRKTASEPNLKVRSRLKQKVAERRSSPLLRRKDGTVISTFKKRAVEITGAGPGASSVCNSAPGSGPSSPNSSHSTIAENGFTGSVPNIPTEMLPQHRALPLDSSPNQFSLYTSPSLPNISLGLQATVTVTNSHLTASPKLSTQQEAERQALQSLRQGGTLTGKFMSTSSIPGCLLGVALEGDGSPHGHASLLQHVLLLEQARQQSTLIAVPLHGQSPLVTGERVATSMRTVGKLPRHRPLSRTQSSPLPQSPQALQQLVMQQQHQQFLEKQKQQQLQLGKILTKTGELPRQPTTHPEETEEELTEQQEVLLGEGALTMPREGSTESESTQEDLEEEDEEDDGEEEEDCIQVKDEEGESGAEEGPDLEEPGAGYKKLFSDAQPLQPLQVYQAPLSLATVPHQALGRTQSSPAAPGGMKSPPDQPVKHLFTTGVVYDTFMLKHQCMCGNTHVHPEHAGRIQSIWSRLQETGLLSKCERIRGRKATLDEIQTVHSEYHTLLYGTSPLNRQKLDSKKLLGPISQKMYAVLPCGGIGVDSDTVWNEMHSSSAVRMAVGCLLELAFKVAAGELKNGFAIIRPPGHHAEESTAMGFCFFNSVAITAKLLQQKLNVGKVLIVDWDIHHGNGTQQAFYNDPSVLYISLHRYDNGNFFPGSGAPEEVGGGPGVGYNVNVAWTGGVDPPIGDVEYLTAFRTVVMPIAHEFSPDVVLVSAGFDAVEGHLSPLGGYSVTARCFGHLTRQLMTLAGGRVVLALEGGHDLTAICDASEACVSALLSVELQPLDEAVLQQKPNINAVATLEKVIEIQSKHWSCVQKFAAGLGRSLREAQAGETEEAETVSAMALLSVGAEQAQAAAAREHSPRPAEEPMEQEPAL
UniProt Q9UBN7, whole entry: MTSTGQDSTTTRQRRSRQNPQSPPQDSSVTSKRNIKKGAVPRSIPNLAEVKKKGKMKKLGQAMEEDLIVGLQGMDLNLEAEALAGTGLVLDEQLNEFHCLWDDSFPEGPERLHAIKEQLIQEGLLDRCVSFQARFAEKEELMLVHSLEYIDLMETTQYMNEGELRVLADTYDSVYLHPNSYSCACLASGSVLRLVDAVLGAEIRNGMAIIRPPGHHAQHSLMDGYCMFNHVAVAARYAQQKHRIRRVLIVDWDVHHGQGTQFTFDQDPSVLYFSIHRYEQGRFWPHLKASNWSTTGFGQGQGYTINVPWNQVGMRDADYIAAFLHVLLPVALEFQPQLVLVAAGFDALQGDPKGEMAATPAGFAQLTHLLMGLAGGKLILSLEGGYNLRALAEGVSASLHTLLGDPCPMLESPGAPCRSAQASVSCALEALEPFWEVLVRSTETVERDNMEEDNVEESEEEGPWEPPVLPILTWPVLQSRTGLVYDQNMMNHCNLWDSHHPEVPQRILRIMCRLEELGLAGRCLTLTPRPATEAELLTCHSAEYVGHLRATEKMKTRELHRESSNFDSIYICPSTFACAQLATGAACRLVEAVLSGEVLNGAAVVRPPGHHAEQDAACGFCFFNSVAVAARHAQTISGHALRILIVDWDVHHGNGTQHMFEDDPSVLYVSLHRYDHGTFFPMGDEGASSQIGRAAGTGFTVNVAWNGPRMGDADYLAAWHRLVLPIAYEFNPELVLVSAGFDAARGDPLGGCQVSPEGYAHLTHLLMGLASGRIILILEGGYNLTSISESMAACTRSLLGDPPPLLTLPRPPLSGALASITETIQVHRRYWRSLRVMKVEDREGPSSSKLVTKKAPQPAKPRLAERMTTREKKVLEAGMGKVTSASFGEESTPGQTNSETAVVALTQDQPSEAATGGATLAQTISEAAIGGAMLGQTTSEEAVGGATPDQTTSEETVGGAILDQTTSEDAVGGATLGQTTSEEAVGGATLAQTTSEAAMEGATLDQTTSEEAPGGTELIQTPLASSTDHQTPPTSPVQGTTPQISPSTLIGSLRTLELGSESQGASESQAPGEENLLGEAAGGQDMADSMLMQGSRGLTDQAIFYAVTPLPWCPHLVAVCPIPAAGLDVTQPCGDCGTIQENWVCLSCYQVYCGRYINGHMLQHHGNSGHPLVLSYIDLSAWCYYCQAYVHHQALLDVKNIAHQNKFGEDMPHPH
UniProt Q8WUI4, whole entry: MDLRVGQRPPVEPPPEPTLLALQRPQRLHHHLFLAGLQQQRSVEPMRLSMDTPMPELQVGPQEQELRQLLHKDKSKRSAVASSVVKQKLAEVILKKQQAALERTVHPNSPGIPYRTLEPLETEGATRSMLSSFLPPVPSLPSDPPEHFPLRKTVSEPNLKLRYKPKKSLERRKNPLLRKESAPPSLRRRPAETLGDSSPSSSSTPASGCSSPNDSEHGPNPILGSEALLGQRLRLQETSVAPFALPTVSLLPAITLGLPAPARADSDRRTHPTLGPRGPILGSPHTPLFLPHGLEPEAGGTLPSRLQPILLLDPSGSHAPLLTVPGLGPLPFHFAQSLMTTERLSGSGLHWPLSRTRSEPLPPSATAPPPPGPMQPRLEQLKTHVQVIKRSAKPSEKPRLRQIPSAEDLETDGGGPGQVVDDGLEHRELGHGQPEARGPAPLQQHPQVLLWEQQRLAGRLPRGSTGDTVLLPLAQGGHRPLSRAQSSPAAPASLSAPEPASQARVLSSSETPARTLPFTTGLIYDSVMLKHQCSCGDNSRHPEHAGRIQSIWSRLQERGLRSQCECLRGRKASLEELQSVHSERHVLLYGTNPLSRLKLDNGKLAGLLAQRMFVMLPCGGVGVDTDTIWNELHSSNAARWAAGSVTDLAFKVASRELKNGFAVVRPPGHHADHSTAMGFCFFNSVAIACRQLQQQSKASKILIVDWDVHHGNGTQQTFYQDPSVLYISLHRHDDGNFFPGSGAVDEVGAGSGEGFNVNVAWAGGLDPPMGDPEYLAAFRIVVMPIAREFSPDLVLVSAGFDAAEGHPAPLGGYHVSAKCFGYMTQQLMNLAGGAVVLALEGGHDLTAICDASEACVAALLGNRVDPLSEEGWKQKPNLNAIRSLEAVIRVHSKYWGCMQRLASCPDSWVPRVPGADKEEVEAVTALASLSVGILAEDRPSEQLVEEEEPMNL
UniProt Q9BY41, whole entry: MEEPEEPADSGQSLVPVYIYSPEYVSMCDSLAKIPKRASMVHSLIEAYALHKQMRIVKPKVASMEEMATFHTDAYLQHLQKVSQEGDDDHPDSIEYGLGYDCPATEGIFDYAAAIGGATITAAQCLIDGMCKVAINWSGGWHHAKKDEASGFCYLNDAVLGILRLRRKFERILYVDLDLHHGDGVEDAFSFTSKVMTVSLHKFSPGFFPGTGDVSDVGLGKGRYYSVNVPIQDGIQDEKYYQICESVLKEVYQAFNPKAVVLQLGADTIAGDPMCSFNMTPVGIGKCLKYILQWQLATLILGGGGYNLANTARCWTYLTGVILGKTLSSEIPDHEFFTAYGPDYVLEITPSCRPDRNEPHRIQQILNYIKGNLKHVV
UniProt Q9UKV0, whole entry: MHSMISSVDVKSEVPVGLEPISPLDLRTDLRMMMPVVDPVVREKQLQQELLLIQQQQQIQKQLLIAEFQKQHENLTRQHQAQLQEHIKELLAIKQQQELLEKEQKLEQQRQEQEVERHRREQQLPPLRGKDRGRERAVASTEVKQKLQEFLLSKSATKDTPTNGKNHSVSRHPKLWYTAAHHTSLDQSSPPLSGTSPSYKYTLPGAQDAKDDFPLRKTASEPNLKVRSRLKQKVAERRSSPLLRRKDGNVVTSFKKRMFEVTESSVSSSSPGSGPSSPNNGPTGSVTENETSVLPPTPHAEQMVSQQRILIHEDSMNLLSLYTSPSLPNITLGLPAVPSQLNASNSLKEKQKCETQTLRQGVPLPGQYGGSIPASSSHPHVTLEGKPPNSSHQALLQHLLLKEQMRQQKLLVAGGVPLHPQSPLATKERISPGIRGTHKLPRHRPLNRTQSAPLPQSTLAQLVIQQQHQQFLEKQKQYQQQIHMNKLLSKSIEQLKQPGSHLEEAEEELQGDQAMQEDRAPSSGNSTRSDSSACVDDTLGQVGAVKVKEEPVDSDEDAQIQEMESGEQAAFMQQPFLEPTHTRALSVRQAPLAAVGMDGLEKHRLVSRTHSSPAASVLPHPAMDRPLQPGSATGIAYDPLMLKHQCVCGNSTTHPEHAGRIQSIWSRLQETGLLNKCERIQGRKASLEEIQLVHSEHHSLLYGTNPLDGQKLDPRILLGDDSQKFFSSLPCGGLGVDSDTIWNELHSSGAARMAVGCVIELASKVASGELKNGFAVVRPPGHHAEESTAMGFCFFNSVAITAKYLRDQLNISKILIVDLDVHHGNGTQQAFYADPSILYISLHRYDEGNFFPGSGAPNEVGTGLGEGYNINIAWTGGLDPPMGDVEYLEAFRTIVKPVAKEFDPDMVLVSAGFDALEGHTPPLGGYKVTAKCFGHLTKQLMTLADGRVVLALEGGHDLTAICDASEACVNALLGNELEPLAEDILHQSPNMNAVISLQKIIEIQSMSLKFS

Legend:
HEL 92.1.7 cells [1] = assay: Cell proliferation assay (CCK8); details: HEL 92.1.7, 48 h
SET-2 cells = assay: Cell proliferation assay (CCK8); details: Ruxolitinib-resistant SET-2
HEL 92.1.7 cells [2] = assay: Cell cycle assay by flow cytometry; details: HEL 92.1.7, 12 hours of treatment at 10 μM
[3] = tested on: A549 side population stem-like cells (KRAS mutation); assay: Sphere formation assay with stem-like side population NSCLC cells; details: A549 SP cells, 0.5-5.0 μM, Day 10
[4] = tested on: H1650 side population stem-like cells (EGFR mutation); assay: as above; details: H1650 SP cells, 0.5-5.0 μM, Day 10
H1650 SP cells = assay: Tube formation assay with stem-like side population NSCLC cells; details: H1650 SP cells on Matrigel
[5] = tested on: Sox2, Gli1, Yap1 mRNA in A549 cells; assay: QRT-PCR assay for stem cell transcription factors; details: A549, 72 hours
[6] = tested on: Sox2, Gli1, Yap1 mRNA in H1650 cells; assay: QRT-PCR assay for stem cell transcription factors; details: H1650, 72 hours
[7] = tested on: H1650 cells co-cultured with primary CAFs; assay: Co-culture assay with cancer cells and cancer associated fibroblasts; details: 1:1 co-culture
[8] = tested on: primary CAFs from human lung cancer; assay: as above; details: 1:1 co-culture with H1650
A549 cells = assay: Cell proliferation assay with combination treatment (MTT); details: A549, combination with GDC-0449 (Vismodegib) or BMS-833923, 96 hours
NCI-H2170 cells = assay: as above; details: H2170, combination with GDC-0449 (Vismodegib) or BMS-833923, 96 hours
HDAC11 = HDAC11 (Homo sapiens (Human), UniProt Q96DB2); assay: HDAC inhibition assay, electrophoretic mobility shift (Nanosyn); assay type: biochemical; details: for IC50: read-out: HDAC Biochemical IC50 HDAC11
HDAC1 = HDAC1 (Homo sapiens (Human), UniProt Q13547); assay: as above; details: read-out: HDAC Biochemical IC50 HDAC1
HDAC10 = HDAC10 (Homo sapiens (Human), UniProt Q969S8); assay: as above; details: read-out: HDAC Biochemical IC50 HDAC10
HDAC2 = HDAC2 (Homo sapiens (Human), UniProt Q92769); assay: as above; details: read-out: HDAC Biochemical IC50 HDAC2
[9] = biological target: HDAC3 co-expressed with nuclear receptor corepressor (Ncor2) (Homo sapiens (Human), UniProt O15379); assay: as above; details: read-out: HDAC Biochemical IC50 HDAC3
HDAC4 = HDAC4 (Homo sapiens (Human), UniProt P56524); assay: as above; details: read-out: HDAC Biochemical IC50 HDAC4
HDAC5 = HDAC5 (Homo sapiens (Human), UniProt Q9UQL6); assay: as above; details: read-out: HDAC Biochemical IC50 HDAC5
HDAC6 = HDAC6 (Homo sapiens (Human), UniProt Q9UBN7); assay: as above; details: read-out: HDAC Biochemical IC50 HDAC6
HDAC7 = HDAC7 (Homo sapiens (Human), UniProt Q8WUI4); assay: as above; details: read-out: HDAC Biochemical IC50 HDAC7
HDAC8 = HDAC8 (Homo sapiens (Human), UniProt Q9BY41); assay: as above; details: read-out: HDAC Biochemical IC50 HDAC8
HDAC9 = HDAC9 (Homo sapiens (Human), UniProt Q9UKV0); assay: as above; details: read-out: HDAC Biochemical IC50 HDAC9

IC50 (HDAC1) | IC50 (HDAC10) | IC50 (HDAC2) | IC50 [9] | IC50 (HDAC4) | IC50 (HDAC5) | IC50 (HDAC6) | IC50 (HDAC7) | IC50 (HDAC8) | IC50 (HDAC9) | Structure (SMILES) | growth of the HEL 92.1.7 cell line (HEL 92.1.7 cells [1]) | growth of stem-like cancer cells (sphere formation) [3] | growth of stem-like cancer cells (sphere formation) [4] | tubule formation (H1650 SP cells) | expression of Gli1 and Yap1 [5] | expression of Sox2 [5] | expression of Gli1 and Yap1 [6] | expression of Sox2 [6] | cell viability, combination with the Smoothened inhibitors (A549 cells) | cell viability, combination with the Smoothened inhibitors (NCI-H2170 cells) | further results
– | – | – | – | – | – | – | – | – | – | CC1(C)c2cccc(C(=O)NO)c2CN1c1cnc(C(F)(F)F)cn1 | inhibited the growth | prevented growth | prevented growth | inhibited tubule formation | decreased expression | decreased expression | decreased expression | decreased expression | decreased cell viability | decreased cell viability | growth of SET-2 cell line generated to be Ruxolitinib-resistant (SET-2 cells): inhibited the growth; cell cycle effect (HEL 92.1.7 cells [2]): induced G1 cell cycle arrest; growth of H1650 cells co-cultured with primary CAFs [7]: inhibit the growth; effects on CAFs [8]: minimal effects
– | – | – | – | – | – | – | – | – | – | CC1(C)c2cccc(C(=O)NO)c2CN1c1nc2ccc(C(F)(F)F)cc2[nH]1 | – | – | – | – | decreased expression | decreased expression | decreased expression | decreased expression | decreased cell viability | decreased cell viability | selectivity over HDACs 1-10 (HDAC11; HDAC11 versus HDACs 1-10): > 1800 fold
> 10 µM | > 10 µM | > 10 µM | > 10 µM | > 10 µM | > 10 µM | > 10 µM | > 10 µM | > 10 µM | > 10 µM | O=C(NO)c1cccc2c1CC1(CC2)CCN(Cc2ccc(Cl)cc2)C1=O (centres unmarked) [II-69, 1′-(4-chlorobenzyl)-N-hydroxy-2′-oxo-3,4-dihydro-1H-spiro[naphthalene-2,3′-pyrrolidine]-8-carboxamide] | did not | – | – | – | – | – | – | – | – | – | IC50 (HDAC11): > 10 µM
> 10 µM | > 10 µM | > 10 µM | > 10 µM | > 10 µM | > 10 µM | > 10 µM | > 10 µM | > 10 µM | > 10 µM | O=C(NO)c1cccc2c1CC1(CC2)CCN(c2cccc(C(F)(F)F)c2)C1=O (centres unmarked) [II-72, N-hydroxy-2′-oxo-1′-(3-(trifluoromethyl)phenyl)-3,4-dihydro-1H-spiro[naphthalene-2,3′-pyrrolidine]-8-carboxamide] | – | did not | did not | did not | – | – | – | – | – | – | IC50 (HDAC11): > 10 µM
